scFv variants of Ab-14 (light chain) against a SARS-CoV-2 spike peptide

Antigen: PDVDLGDISGINAS, a 14-residue peptide of the SARS-CoV-2 spike HR2 region.

The variants keep the heavy chain, the linker and the frameworks of Ab-14 (scFv order VH, a (GGGGS)3 linker, VL).
VH: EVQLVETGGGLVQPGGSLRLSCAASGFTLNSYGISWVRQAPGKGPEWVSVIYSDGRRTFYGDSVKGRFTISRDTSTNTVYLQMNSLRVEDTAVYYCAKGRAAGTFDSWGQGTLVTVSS
VL: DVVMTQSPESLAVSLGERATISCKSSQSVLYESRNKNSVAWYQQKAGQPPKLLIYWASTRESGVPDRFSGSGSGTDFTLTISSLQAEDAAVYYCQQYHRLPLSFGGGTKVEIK

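The starting antibody came from a phage panning campaign against this peptide. The variants were designed computationally from a first round of random CDR variants and then made and measured. Several design methods are mixed in this list. In AlphaSeq, yeast of one mating type display the scFv and yeast of the other type display the target. Pairs that bind mate more often; barcode pairs of the diploids are counted by sequencing. The ratio of observed to expected reads was calibrated, replicate by replicate, on BCL2-family standards whose Kd was known from biolayer interferometry. Mating was done six times.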

The parent's light chain CDRs are KSSQSVLYESRNKNSVA, WASTRES, QQYHRLPLS; each variant's own CDRs replace them letter for letter. Values are apparent Kd, the geometric mean of the replicates that gave a signal; lower means stronger binding. A pair that was not seen in any replicate is written "nd"; this usually means weak binding, but a binder can also be missed. Values of this round are not directly comparable with the first-round values of the same sequences.

CDR-L1 | CDR-L2 | CDR-L3 | Kd (apparent) | replicates with signal | control signals
KVDQEVGGLSRNQNAVA | AASTRES | QQYHRLPLS | 1.6 nM | 6 of 6 | 1 of 18
KLSISGLYESRMKNSVA | EASTRES | QQYHRLPLS | 170 pM | 6 of 6 | 0 of 18
ILSMSELYGDRMKNSVA | NASQREQ | QQYHRLPLS | 940 pM | 6 of 6 | 0 of 18
SLELFSLEGDKPVNAVA | DEVVKTA | QQYFRLPLH | 30 nM | 6 of 6 | 0 of 18
KSSISGEYESRMKNSVA | EASTRES | QQYHRLPLS | 700 pM | 6 of 6 | 0 of 18
MLSQMWGTGQKVKNSVA | QASMRFN | QQYHRLPLI | 17 nM | 1 of 6 | 0 of 18
KISNTSEMELKNRNSVA | ELVTRLN | QQYNRLPLS | 11 nM | 6 of 6 | 3 of 18
IVSQLMLWGKSAKNSIA | EAVTRLN | QQYDRLPLI | 40 nM | 4 of 6 | 1 of 18
KLDQSGGYGSRNKNSVA | HASYRES | QQYHRLPLY | 34 nM | 6 of 6 | 1 of 18
KISQMVRVGSTHNNSIA | EEQTRAK | QQYHRLPLS | 24 nM | 6 of 6 | 1 of 18
KISMLYNYASTNKNSIA | EMTTREM | QHYHRLPLS | 11 nM | 6 of 6 | 1 of 18
KLSGLMASSKFAKNNVA | ENNTRED | QQYERLPLS | 78 nM | 2 of 6 | 0 of 18
NMTGIKEMQSNNINNIA | ENNERFQ | QQYWQLPLS | 26 nM | 6 of 6 | 0 of 18
KSSQSVFKQSRNKNSVA | PASTRES | QQYHRVPLS | nd | 0 of 6 | 0 of 18
KVSQSQLYEQRMKQSVA | NASERES | QQYHRLPLS | 2.4 nM | 6 of 6 | 1 of 18
KHSISVWGEDRNKNSVA | DASTRES | QQYHRLPLS | 790 pM | 6 of 6 | 1 of 18
ILSQSVLLGMHTKNNVA | QATMRFN | QQYHRLPFM | 2.0 nM | 6 of 6 | 2 of 18
KISQMVRVGATHSNSIA | EEQTRAK | QQYHRLPLA | 11 nM | 6 of 6 | 1 of 18
MLGMTVMQGMYSRNSVA | QEETRAE | QQYHHLPLS | 63 nM | 6 of 6 | 0 of 18
IISQSVLGEAHNKNSVA | QTSERGS | QQYDRLPLS | 6.6 nM | 6 of 6 | 1 of 18
KLSGSVLYESRNKNSVA | EASTREQ | QQYHRLPLS | 490 pM | 6 of 6 | 0 of 18
KLSQSELYESRVKNSVA | NASQRES | QQYHRLPLS | 3.7 nM | 6 of 6 | 2 of 18
KSSQHVLYESRNKNHVA | AASTRES | QQYHRLPLS | 19 nM | 6 of 6 | 0 of 18
KMMLSLGESKQSEDNVA | NMRVSVA | QQYDHLPLT | 110 nM | 3 of 6 | 0 of 18
KSSQSVLSESRRKNSVA | WASTRES | QQYHRLPLS | nd | 0 of 6 | 0 of 18
KVSQSVLYESGTKNSVA | NASERES | QQYHRLPLS | 1.1 nM | 6 of 6 | 0 of 18
KSSNSWLYESRNKNSVA | WASTRES | QQYHRLPLS | 3.4 nM | 6 of 6 | 1 of 18
HMSQSVLYESRNKNSVA | NGSTRES | QQYHRLPLS | 1.3 nM | 6 of 6 | 2 of 18
TISTSMRYETSLKNAIA | NAQTRES | QQYHRLPLS | 1.3 nM | 6 of 6 | 2 of 18
KLPQSMEYESRMKNSVA | HASTRES | QQYHRLPLS | 1.5 nM | 6 of 6 | 1 of 18
KLQQSMLYESRWHNSVA | AASVRCD | QQYHRLPLS | 26 nM | 6 of 6 | 0 of 18
KSSQSVGEESMNQNSVA | TASTRES | QQYHRLPLS | 650 pM | 5 of 6 | 0 of 18
KLSQSHLYESRNKNNVA | AASTRES | QQYHRLPLS | 1.7 nM | 6 of 6 | 1 of 18
NISINQMDEYKMRSNIA | NTSWKAM | QQYFHLPLM | 2.2 nM | 6 of 6 | 1 of 18
KLPQSWLYDSRNSNSVA | HASQRME | QQYHRLPLS | 860 pM | 6 of 6 | 1 of 18
KVSQQMLYESRNKNNVA | EASHRES | QQYHRLPLS | 370 pM | 6 of 6 | 1 of 18
KVSEFMRGLMSKKDSIA | DNVTRSN | QQYDRLPLS | 4.6 nM | 6 of 6 | 2 of 18
KLSQSVPYEWRNKNSVA | NASTRES | QQYHRLPLS | 1.3 nM | 6 of 6 | 4 of 18
KLFDRTMEGIANQRAVA | EDNDVSV | QQYSILPLT | nd | 0 of 6 | 0 of 18
KSSQSKLYESRNHNSVA | WASTRES | QQYHRLPLS | 570 nM | 4 of 6 | 0 of 18
MLDEYQMYEAANDAAIA | DANDVMP | QQYYSLPLS | 35 nM | 6 of 6 | 0 of 18
KSSPSVLYESHNKNSVA | NASQRMS | QQYHRLPLS | 950 pM | 6 of 6 | 0 of 18
HLKTMPGQGPQTYSSIA | HAEIRTP | QQYYRLPLM | nd | 0 of 6 | 0 of 18
KIQLGLSRYNGDYSSIA | NETQKGD | QQYFQLPLG | 4.8 nM | 6 of 6 | 0 of 18
MIHEVMGLVSHKQSSIA | DNSTRES | QQYDRLPLS | 1.7 µM | 1 of 6 | 0 of 18
KFSQSWLYESRNKNSVA | NASTREQ | QQYHRLPLS | 520 pM | 6 of 6 | 1 of 18
KHSQSVLQESRNKNSVA | DASTRES | QQYHRLPLS | 980 pM | 6 of 6 | 2 of 18
MISMEEAPAGQQESSIA | HGGTKAE | QQYNRLPLA | 3.0 nM | 6 of 6 | 2 of 18
MMSSLMGYESRNIQNVA | QTSTREQ | QQYDRLPLI | 1.2 nM | 6 of 6 | 0 of 18
KSSCSVDYEDRNSNSVA | NASTRLW | QQYHRLPLS | 2.0 nM | 6 of 6 | 0 of 18
ALQMERLGQKQYQNNIA | NQDIRTA | QQYYMLPLV | 540 pM | 6 of 6 | 0 of 18
TIGASLMYGSRNRSNVA | EVSQRLN | QQYDRLPLE | 90 nM | 6 of 6 | 1 of 18
KSRQSVLYEHENKNSVA | WASTRES | QQYHRLPLS | 180 nM | 4 of 6 | 1 of 18
KSSQSVLYTSRNKNSVA | GASTRES | QQYHRLPLY | 14 nM | 6 of 6 | 0 of 18
KCAQGWGYESRNANNVA | NASQRES | QQYHRLPLS | 350 pM | 6 of 6 | 0 of 18

Background: pairings of all light chain designs with three empty control strains gave a value in 4% of cases (median 430 nM, 5th percentile 38 nM). Values in that range, when seen in few replicates, are hard to tell from nonspecific mating. Also given: how often the same scFv was detected with the empty control strains. In the paper, a design with two or fewer of six values counts as a poor binder.

Data: MIT Lincoln Laboratory AlphaSeq set, Li et al. 2023, doi:10.1038/s41467-023-39022-2, as distributed in FLAb.